Target: Adenosine receptor A2a (Homo sapiens, UniProt P29274)
Assay: Antagonist activity at human Adenosine receptor A2a assessed as inhibition of cAMP production
Format: functional

Ki: 1.8 nM
Structure (SMILES): CC(C)n1cc(-c2ncc(N)nc2-c2ccc(F)cc2)ccc1=O
